This assay deals with T1, CD38 on CD38-positive cells (human, UniProt P28907 1-300).
T1 construct: whole, on cells; also called CD38 on H211, SU-DHL-6, Daudi, Ramos (Romas), Raji, SU-DHL-1, DU145, H157 cells
Put plainly: flow cytometry on SU-DHL-6 cells (B cell lymphoma), MFI against antibody concentration [table, row SU-DHL-6]. In general terms: In flow cytometry, cells or beads pass a laser one at a time.

B1: FTL004-1 (antibody, human IgG1, kappa)
heavy: not shown
light: DIVLTQSPASLAVSPGQRATITCRASESVDNFGITFMHWYQQKPGQPPKLLIYRASNLESGVPARFSGSGSRTDFTLTINPVEANDTANYYCQQSSKDPRTFGQGTKLEIKRTVAAPSVFIFPPSDEQLKSGTASVVCLLNNFYPREAKVQWKVDNALQSGNSQESVTEQDSKDSTYSLSSTLTLSKADYEKHKVYACEVTHQGLSSPVTKSFNRGEC
notes: copies: 2 + 2
B1: the EC50 (usually the concentration that produces a half-maximal response) came out at 0.436 µg/mL.

Source of the values: patent publication US20240400711A1 (SOUND BIOPHARMACEUTICALS, published 2024).
